Laboratory results from PMC5147500.

Biological target: Full-length retromer complex (VPS26-VPS29-VPS35) (UniProt O75436)
Experiment: SEC-MALS

Substance: Full-length retromer complex (VPS26-VPS29-VPS35) (from UniProt O75436-1 1-327; Q9UBQ0 1-182; Q96QK1 1-796)
- stoichiometry N: 2
